This assay has as its target RBM39RRM2-biotin (Homo sapiens, UniProt Q14498). Kind of assay: TR-FRET titration of BodipyFL-E7820 probe to RBM39RRM2-biotin. Particulars: RBM39RRM2-biotin alone. Background: In TR-FRET formats the signal depends on donor and acceptor labels being close together.

Chains of the proteins cited; added tags and fusions are not shown. Residues count along the entry.
UniProt Q14498, 245-332 limits assumed: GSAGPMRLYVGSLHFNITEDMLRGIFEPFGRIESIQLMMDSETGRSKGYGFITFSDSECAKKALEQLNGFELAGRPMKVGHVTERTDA

Regarding `CC1=CC(C)=[N+]2C1=Cc1ccc(CCC(=O)NCCCCCCOc3ccc(S(=O)(=O)Nc4ccc(C)c5c(C#N)c[nH]c45)cc3C#N)n1[B-]2(F)F`, the “Binding to RBM39RRM2” value was “only observed for DDB1ΔB-DCAF15biotin”.

(Values after patent US12428459B2, “Protein tag to induce ligand dependent degradation of protein/protein-fusions” (DANA-FARBER CANCER INSTITUTE, INC., priority 2019, dated 2025).)
